Results on 19 compounds are retold here after US9890152B2 (Genentech, Inc., priority 2012, dated 2018).

Sequences of proteins named here, by UniProt entry; tags and fusion partners are left off. Residues count along the entry.
UniProt P00533, 25-1210 T790M/L858R limits assumed: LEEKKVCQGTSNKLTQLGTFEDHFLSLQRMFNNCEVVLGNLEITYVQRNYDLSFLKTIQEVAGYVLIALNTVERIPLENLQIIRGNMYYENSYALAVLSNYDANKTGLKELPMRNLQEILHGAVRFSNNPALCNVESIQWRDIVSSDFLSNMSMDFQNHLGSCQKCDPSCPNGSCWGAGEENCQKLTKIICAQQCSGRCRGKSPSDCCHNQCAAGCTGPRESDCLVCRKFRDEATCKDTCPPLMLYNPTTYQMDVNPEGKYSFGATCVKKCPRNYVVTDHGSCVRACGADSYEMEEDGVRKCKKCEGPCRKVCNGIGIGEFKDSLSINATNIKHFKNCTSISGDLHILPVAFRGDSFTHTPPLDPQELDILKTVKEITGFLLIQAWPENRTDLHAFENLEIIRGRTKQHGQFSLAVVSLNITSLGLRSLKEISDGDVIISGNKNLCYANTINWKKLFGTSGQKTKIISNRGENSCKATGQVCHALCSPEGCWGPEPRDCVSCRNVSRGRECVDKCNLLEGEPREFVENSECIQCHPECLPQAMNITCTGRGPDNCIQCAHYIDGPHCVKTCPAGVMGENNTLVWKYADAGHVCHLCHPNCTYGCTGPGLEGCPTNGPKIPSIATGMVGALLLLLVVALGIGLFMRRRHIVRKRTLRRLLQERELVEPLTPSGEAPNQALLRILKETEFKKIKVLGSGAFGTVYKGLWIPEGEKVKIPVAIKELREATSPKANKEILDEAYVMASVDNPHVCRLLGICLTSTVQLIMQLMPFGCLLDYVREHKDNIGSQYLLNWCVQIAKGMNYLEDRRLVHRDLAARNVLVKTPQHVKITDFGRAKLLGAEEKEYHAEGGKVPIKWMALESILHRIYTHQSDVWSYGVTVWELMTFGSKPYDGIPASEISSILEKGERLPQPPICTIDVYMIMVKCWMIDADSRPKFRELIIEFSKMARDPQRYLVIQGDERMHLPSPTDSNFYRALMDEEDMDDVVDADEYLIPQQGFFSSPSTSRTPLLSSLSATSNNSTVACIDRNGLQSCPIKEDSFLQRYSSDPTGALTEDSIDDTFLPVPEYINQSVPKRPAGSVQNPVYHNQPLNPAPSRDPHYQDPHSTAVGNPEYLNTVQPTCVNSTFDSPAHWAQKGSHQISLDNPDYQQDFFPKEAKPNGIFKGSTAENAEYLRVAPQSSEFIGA

SMILES strings stand for the structures.

Broadly, the EC50 is the concentration needed to bring the measured effect to its halfway point.

In one test the target is EGFR T790M L858R (Homo sapiens, UniProt P00533, L858R/T790M). The test can be described thus: biochemical. Conditions: EGFR(T790M/L858R) Ki (μM), 5 μM ATP, 30 min, room temperature; apparent Ki (Morrison) converted by Cheng-Prusoff, Km of ATP 1.3 μM.
The subject of test [1] is H1975 (EGFR T790M/L858R) cell proliferation. The experiment in a line: H1975 proliferation assay (Cell Titer-Glo). The test is classed as cell-based. Conditions: Homo sapiens, NCI-H1975 cells, 72 hour, read-out: H1975 antiproliferative EC50. In general terms: In ATP-based viability assays light output follows the ATP content of the culture.

Turning to `CC(C)n1cc(C2CNC(=O)C2)c2cnc(Nc3ccnc(-c4cnn(S(=O)(=O)C5CC5)c4)n3)cc21` (centres unmarked) [Example 256, 4-(6-(2-(1-(Cyclopropylsulfonyl)-1H-pyrazol-4-yl)pyrimidin-4-ylamino)-1-isopropyl-1H-pyrrolo[3,2-c]pyridin-3-yl)pyrrolidin-2-one], the Ki at EGFR T790M L858R stood at 0.00548 µM. In test [1], the EC50 is 1030 nM.
Regarding `CC(C)n1c(Cl)c(C(=O)NC2CCOCC2)c2cnc(Nc3ccnc(-c4cnn(S(=O)(=O)C5CC5)c4)n3)cc21` [Example 262, 2-Chloro-6-(2-(1-(cyclopropylsulfonyl)-1H-pyrazol-4-yl)pyrimidin-4-ylamino)-1-isopropyl-N-(tetrahydro-2H-pyran-4-yl)-1H-pyrrolo[3,2-c]pyridine-3-carboxamide], the Ki on EGFR T790M L858R is 0.00116 µM. Also, the EC50 in test [1] turned out to be 357 nM.
Take `COC1(CN)CCN(c2nccc(Nc3cc4c(cn3)nc(C)n4C(C)C)n2)CC1` [Example 271, [2-(4-Aminomethyl-4-methoxypiperidin-1-yl)pyrimidin-4-yl](1-isopropyl-2-methyl-1H-imidazo[4,5-c]pyridin-6-yl)amine]: the Ki on EGFR T790M L858R was found to be 0.0749 µM. Besides, in test [1], the EC50 came to 9650 nM.
Consider `CC1(C)COc2nc3cnc(Nc4ccnc(-c5cnn(S(=O)(=O)C6CC6)c5)n4)cc3n21` [Example 280, [2-(1-Cyclopropanesulfonyl-1H-pyrazol-4-yl)-pyrimidin-4-yl]-(3,3-dimethyl-2,3-dihydro-1-oxa-3a,6,8-triazacyclopenta[a]inden-5-yl)-amine], for which the Ki at EGFR T790M L858R stood at 0.0108 µM. Also, the EC50 in test [1] was 808 nM.
Take `CC(C)n1c(OCCO)nc2cnc(Nc3ccnc(-c4cnn(S(=O)(=O)C5CC5)c4)n3)cc21` [Example 282, 2-{6-[2-(1-Cyclopropanesulfonyl-1H-pyrazol-4-yl)pyrimidin-4-ylamino]-1-isopropyl-1H-imidazo[4,5-c]pyridin-2-yloxy}ethanol]: the Ki on EGFR T790M L858R was found to be 0.0032 µM. Further, the concentration giving a half-maximal response (EC50) in test [1] is 1580 nM.
As to `CCNc1ncc(-c2nccc(Nc3cc4c(cn3)nc(C)n4C(C)C)n2)s1` [Example 295, [2-(2-Ethylaminothiazol-5-yl)pyrimidin-4-yl](1-isopropyl-2-methyl-1H-imidazo[4,5-c]pyridin-6-yl)amine], the Ki on EGFR T790M L858R was 0.00146 µM. Also, the EC50 in test [1] worked out at 588 nM.
In the case of `CNc1ncc(-c2nccc(Nc3cc4c(cn3)nc(C)n4C(C)C)n2)s1` [Example 312, (1-Isopropyl-2-methyl-1H-imidazo[4,5-c]pyridin-6-yl)-[2-(2-methylaminothiazol-5-yl)pyrimidin-4-yl]amine], at EGFR T790M L858R, the Ki is 0.00174 µM. The EC50 in test [1] was 587 nM.
Taken in the same sequence, the figures for `CC(=O)Nc1cn(C(C)C)c2cc(Nc3ccnc(-c4cnn(S(=O)(=O)C5CC5)c4)n3)ncc12` [Example 327, N-(6-((2-(1-(Cyclopropylsulfonyl)-1H-pyrazol-4-yl)pyrimidin-4-yl)amino)-1-isopropyl-1H-pyrrolo[3,2-c]pyridin-3-yl)acetamide] were 0.000702 µM and 440 nM.
For `Cc1c(C(=O)NC2CCOCC2)c2cnc(Nc3ccnc(-c4cnn(S(=O)(=O)C5CC5)c4)n3)cc2n1C(C)C` [Example 335, 6-((2-(1-(Cyclopropylsulfonyl)-1H-pyrazol-4-yl)pyrimidin-4-yl)amino)-1-isopropyl-2-methyl-N-(tetrahydro-2H-pyran-4-yl)-1H-pyrrolo[3,2-c]pyridine-3-carboxamide], in that order: 0.00147 µM and 876 nM.
Regarding `CC(C)n1cc(C(=O)NC2COC2)c2cnc(Nc3ccnc(-c4cnn(S(=O)(=O)N(C)C)c4)n3)cc21` [Example 378, 6-((2-(1-(N,N-dimethylsulfamoyl)-1H-pyrazol-4-yl)pyrimidin-4-yl)amino)-1-isopropyl-N-(oxetan-3-yl)-1H-pyrrolo[3,2-c]pyridine-3-carboxamide], on EGFR T790M L858R, the Ki worked out at 0.00244 µM. Further, the EC50 in test [1] came to 1060 nM.
In the case of `CC(C)n1cc(-c2cnn(CCO)c2)c2cnc(Nc3ccnc(-c4cnn(S(=O)(=O)C5CC5)c4)n3)cc21` [Example 393, 2-(4-(6-((2-(1-(cyclopropylsulfonyl)-1H-pyrazol-4-yl)pyrimidin-4-yl)amino)-1-isopropyl-1H-pyrrolo[3,2-c]pyridin-3-yl)-1H-pyrazol-1-yl)ethanol], the Ki at EGFR T790M L858R worked out at 0.000812 µM. Further, the EC50 in test [1] turned out to be 209 nM.
For `Cc1nc2cnc(Nc3ccnc(-c4cnn(CC5CC5)c4)n3)cc2n1C(C)C` [Example 395, N-(2-(1-(cyclopropylmethyl)-1H-pyrazol-4-yl)pyrimidin-4-yl)-1-isopropyl-2-methyl-1H-imidazo[4,5-c]pyridin-6-amine], in that order: 0.0321 µM and 5000 nM.
For `CC(C)n1cc(C(=O)NC2CCOCC2)c2cnc(Nc3ccnc(-c4cnn(S(=O)(=O)C5CC5)c4)n3)cc21` [Example 396], in that order: 0.00106 µM and 548 nM.
Turning to `CC(C)n1c(CO)nc2cnc(Nc3ccnc(N4C[C@H]5CC[C@@H](C4)[C@H]5O)n3)cc21` [Example 433, (1R,5S,8r)-3-(4-((2-(hydroxymethyl)-1-isopropyl-1H-imidazo[4,5-c]pyridin-6-yl)amino)pyrimidin-2-yl)-3-azabicyclo[3.2.1]octan-8-ol], on EGFR T790M L858R, the Ki amounted to 0.0265 µM. Further, the EC50 in test [1] turned out to be 9840 nM.
As to `COC1(CO)CCN(c2nccc(Nc3cc4c(cn3)c(-c3cnn(C(C)(C)C(N)=O)c3)cn4C(C)C)n2)CC1` [Example 445, 2-(4-(6-(2-(4-(hydroxymethyl)-4-methoxypiperidin-1-yl)pyrimidin-4-ylamino)-1-isopropyl-1H-pyrrolo[3,2-c]pyridin-3-yl)-1H-pyrazol-1-yl)-2-methylpropanamide], the Ki at EGFR T790M L858R was 0.00346 µM. The EC50 in test [1] is 7300 nM.
In the case of `O=S(=O)(C1CC1)n1cc(-c2nccc(Nc3cc4c(cn3)nc(CO)n4-c3ccccc3)n2)cn1` [Example 475, (6-(2-(1-(cyclopropylsulfonyl)-1H-pyrazol-4-yl)pyrimidin-4-ylamino)-l-phenyl-1H-imidazo[4,5-c]pyridin-2-yl)methanol], the Ki at EGFR T790M L858R came to 0.00344 µM. Further, the EC50 in test [1] was 739 nM.
Consider `CC1(C)CCOc2nc3cnc(Nc4ccnc(-c5cnn(S(=O)(=O)C6CC6)c5)n4)cc3n21` [Example 534, [2-(1-Cyclopropanesulfonyl-1H-pyrazol-4-yl)-pyrimidin-4-yl]-(4,4-dimethyl-3,4-dihydro-2H-1-oxa-4a,7,9-triazafluoren-6-yl)amine], for which the Ki at EGFR T790M L858R was found to be 0.00754 µM. In test [1], the EC50 came out at 732 nM.
Turning to `CC1(C)COCc2nc3cnc(Nc4ccnc(-c5cnn(S(=O)(=O)C6CC6)c5)n4)cc3n21` [Example 538, [2-(1-Cyclopropanesulfonyl-1H-pyrazol-4-yl)-pyrimidin-4-yl]-(4,4-dimethyl-3,4-dihydro-1H-2-oxa-4a,7,9-triazafluoren-6-yl)amine], the Ki at EGFR T790M L858R is 0.00461 µM. Also, the EC50 in test [1] is 1910 nM.
Taken in the same sequence, the figures for `COC1CCN(c2nccc(Nc3cc4c(cn3)nc([C@@H](C)O)n4[C@@H](C)C(F)(F)F)n2)CC1F` (stereo partly drawn) [Example 543, (R)-1-[6-[2-(3-Fluoro-4-methoxypiperidin-1-yl)-pyrimidin-4-ylamino]-1-((S)-2,2,2-trifluoro-1-methyl-ethyl)-1H-imidazo[4,5-c]pyridin-2-yl]ethanol] were 0.00116 µM and 121 nM.
